The record followed here is US11629335B2, “Methods of improving vector transduction efficiency into T lymphocytes” (CELGENE CORPORATION, priority 2014, dated 2023).

The series relates to primary human T lymphocytes. Put plainly: Viability of primary human T lymphocytes after lentiviral transduction, by FACS. The conditions noted are these: 2-AP at 2.5 mM, 5 mM or 10 mM, with DD or PS, MOI 3. In general terms: In flow cytometry, cells or beads pass a laser one at a time.

Consider `Nc1ncc2[nH]cnc2n1` [2-AP, 2-Aminopurine], for which the “viability compared to cells cultured in the absence of 2-AP” value is listed as “not reduced”.
